Amino acid sequences for entries named in this document (tags omitted).
UniProt P20288, whole entry: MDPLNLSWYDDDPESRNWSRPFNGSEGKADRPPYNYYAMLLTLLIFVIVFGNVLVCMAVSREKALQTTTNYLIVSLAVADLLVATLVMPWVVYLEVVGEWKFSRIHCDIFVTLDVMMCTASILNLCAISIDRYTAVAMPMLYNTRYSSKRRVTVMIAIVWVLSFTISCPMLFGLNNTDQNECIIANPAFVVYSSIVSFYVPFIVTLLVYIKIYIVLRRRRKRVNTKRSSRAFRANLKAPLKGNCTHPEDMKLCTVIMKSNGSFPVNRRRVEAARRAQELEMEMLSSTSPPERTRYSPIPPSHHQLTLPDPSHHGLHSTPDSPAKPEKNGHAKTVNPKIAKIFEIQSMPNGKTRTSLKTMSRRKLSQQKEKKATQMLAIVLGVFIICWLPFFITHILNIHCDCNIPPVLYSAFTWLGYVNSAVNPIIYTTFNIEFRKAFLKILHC

In patent US4687773A, “(+)-N-N-propylnorapomorphine and selective limbic activity” (priority 1985, dated 1987):

Target: T1, Dopamine Receptors (Bos taurus, UniProt P20288)
T1 construct: protease-free calf caudate nuclei; from tissue; host or cells: calf caudate nucleus, membrane fraction P4
Assay: biochemical
Assay type: binding, calf

Structure (SMILES): CCCN1CCc2cccc3c2[C@H]1Cc1ccc(O)c(O)c1-3 [(-)NPA, (R)-N-n-propylnorapomorphine]
- IC50: 174 nM

Structure (SMILES): CCCN1CCc2cccc3c2[C@@H]1Cc1ccc(O)c(O)c1-3 [(+)NPA, (S)-N-n-Propylnorapomorphine Hydrochloride]
- IC50: 1410 nM

Counter-ions that a name gives are not always drawn.
